Only a part is listed here, and it is no random draw. The source made the active and inactive calls.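 Rule for the calls: active = inhibition above the screen-wide average of all tested compounds plus 3 SD (cut at about 25% in these data); inactive = the rest.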
target: Platelet-activating factor acetylhydrolase IB subunit alpha1 (Homo sapiens) (UniProt Q15102); test: inhibition of PAF acetylhydrolase 1B subunit 3 – biochemical, fluorescence polarization, human, primary screen (AID 492972); conditions: recombinant PAFAH1B3, FP-rhodamine probe, at 3.39 µM, hits give high values;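 note: 0% = enzyme with DMSO only and 100% = wells lacking PAFAH1B3 protein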

The chains behind the UniProt entries cited, without tags or fusion partners. Where a name states a change or a piece, a line headed by the entry shows the natural chain unless it says otherwise.
UniProt Q15102: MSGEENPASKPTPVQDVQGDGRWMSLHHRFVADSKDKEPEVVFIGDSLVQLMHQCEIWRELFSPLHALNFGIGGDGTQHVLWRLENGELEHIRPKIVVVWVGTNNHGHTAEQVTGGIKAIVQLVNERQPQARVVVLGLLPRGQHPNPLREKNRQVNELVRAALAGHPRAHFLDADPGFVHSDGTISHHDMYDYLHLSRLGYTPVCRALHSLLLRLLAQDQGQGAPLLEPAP

| SMILES | inhibition |
| --- | --- |
| COc1cc(I)ccc1[As](=O)(O)O | inactive: 0.4% |
| COc1ccc2nc(NP(=O)(c3ccccc3)c3ccccc3)sc2c1 | inactive: 5.69% |
| O=[N+]([O-])c1cc(Oc2ccc([N+](=O)[O-])cc2C(F)(F)F)cc([N+](=O)[O-])c1 | inactive: 6.31% |
| COc1ccc(N/C(=N/P(=O)(N2CCOCC2)N2CCOCC2)N2CCOCC2)cc1 | inactive: -1% |
| COc1cc(C(=O)NCC2(N3CCOCC3)CCCCC2)ccc1OCC(C)C | inactive: 12.9% |
| O=[N+]([O-])c1ccc(-c2cc([N+](=O)[O-])c(O)c([N+](=O)[O-])c2)cc1 | inactive: 9.74% |
| C[As](=O)(O)c1cccc(C(=O)O)c1 | inactive: 4.7% |
| O=[As](O)(c1ccc(O)cc1)c1ccccc1O | inactive: 6.25% |
| Cc1ccc(OP(=O)(Nc2ccc([N+](=O)[O-])cn2)Oc2ccc(C)cc2)cc1 | inactive: -6.21% |
| Cc1ccc2nc3c(c(C)c2c1)CC(C(Cl)Cl)S3 (centres undefined) | inactive: 10.3% |
| ClCCSc1nnc(-c2cccnc2)o1 | inactive: 3.56% |
| CC(C)c1ccc(OP(=O)(Nc2ccccn2)Oc2ccccc2F)cc1 (centres undefined) | inactive: 6.35% |
| COC(=O)C1(C)COP(=O)(N2CCCCCC2)OC1 (centres undefined) | inactive: 5.71% |
| O=[N+]([O-])c1cc([N+](=O)[O-])c(-c2ccn[nH]2)s1 | inactive: 3.26% |
| O=C(OC1CN2CCC1CC2)c1cccc2[nH]cnc12 (centres undefined) | inactive: 2.56% |
| CCN(CC)C(=S)SC(NC=O)C(Cl)(Cl)Cl (centres undefined) | inactive: 1.59% |
| O=P(Nc1nc2ccc(Cl)cc2s1)(c1ccccc1)c1ccccc1 | inactive: 4.9% |
| CCCC1OP(N)(=O)OCC1CC (centres undefined) | inactive: 3.74% |
| O=C(O)c1ccccc1[As](=O)(O)O | inactive: 4.91% |
| CC(=O)Nc1ccc([As](=O)(O)O)cc1 | inactive: 4.07% |
| Cc1ccc(NP(=O)(Oc2ccccc2F)Oc2ccccc2F)nc1 | inactive: -0.69% |
| CN(C(=O)Cc1ccc(Cl)c(Cl)c1)[C@H]1CCCC[C@@H]1N1CCCC1 | inactive: 0.1% |
| CCOP(=O)(Nc1ccccc1)OCC | inactive: 15.3% |
| Cc1cc(SC(NC(=O)c2ccc(F)cc2)C(Cl)(Cl)Cl)ncn1 (centres undefined) | inactive: 7.19% |

| SMILES | inhibition |
| --- | --- |
| Nc1cccc2ccc([As](=O)(O)O)cc12 | inactive: 22.3% |
| CCN(N=Nc1nonc1N)c1nonc1N | inactive: 2.92% |
| Cc1ccc(N/C(=N/P(=O)(N2CCOCC2)N2CCOCC2)N2CCOCC2)cc1 | inactive: 18.2% |
| CN(C(=O)Cc1ccc(Cl)c(Cl)c1)[C@H]1CCCC[C@H]1N1CCCC1 | inactive: 1.17% |
| NC(=O)c1cc([N+](=O)[O-])cc([N+](=O)[O-])c1N | inactive: 1.06% |
| Clc1ccc(Cl)c(NC2=NCC(CBr)S2)c1 (centres undefined) | inactive: 9.33% |
| CN1CCCC(OC(=O)C(c2ccccc2)c2ccccc2)C1 (centres undefined) | inactive: 3.1% |
| COc1ccccc1OP(=O)(Nc1ccc(C)cn1)Oc1ccccc1OC | inactive: -2.74% |
| O=C(NC(Sc1ccncn1)C(Cl)(Cl)Cl)c1ccccc1 (centres undefined) | inactive: 9.94% |
| Oc1ccccc1CNc1ccccn1 | inactive: 1.06% |
| CC(C)CC(=O)NC(Sc1ccc(Cl)cc1)C(Cl)(Cl)Cl (centres undefined) | inactive: -2.26% |
| Nc1cc(N)c2nonc2c1[N+](=O)[O-] | inactive: 8.38% |
| COc1ccc(C2=NCC(CBr)S2)cc1 (centres undefined) | inactive: 0.51% |
| CCc1nc2c(n1)c1c(non1O)c1c2no[n+]1[O-] | inactive: 23.6% |
| O=[N+]([O-])c1cc([N+](=O)[O-])c(CCNc2ccccc2)c([N+](=O)[O-])c1 | inactive: 12% |
| Cc1ccc(NP(=O)(Oc2ccccc2)Oc2ccccc2)nc1 | inactive: 7.07% |
| O=[N+]([O-])c1cccc2n[nH]nc12 | inactive: 3.15% |
| CC(=O)N1C2C3N(C(C)=O)C1C1N(C(C)=O)C(C(N1C(C)=O)N3C(C)=O)N2C(C)=O | inactive: 4.33% |
| CCN(/C(=N/P(=O)(N1CCOCC1)N1CCOCC1)N1CCOCC1)c1ccc(OC)cc1 | inactive: 4.08% |
| C[N+]1=C2C=CC=CC=C2SC12C([N+](=O)[O-])=CC([N+](=O)[O-])=C[C-]2[N+](=O)[O-] (centres undefined) | active: 26.1% |
| Nc1ccc([As](=O)(O)c2ccc(N)cc2)cc1 | inactive: 6.77% |
| CC1CCN(C(=O)Oc2c(Cl)cc(Cl)c3cccnc23)CC1 | inactive: 3.96% |
| CN(C)C(=O)OCCc1n(C)cc[n+]1C | inactive: 0.17% |
| CC(C)=N/N=C(\N)N[N+](=O)[O-] | inactive: 8.34% |

| SMILES | inhibition |
| --- | --- |
| O=P1(N(CCCl)CCCl)OCCCS1 (centres undefined) | inactive: 2.09% |
| O=C(Nc1cc([As](=O)(O)O)ccc1O)c1ccccc1 | inactive: 12.1% |
| O=[N+]([O-])c1ncn(CCn2ncnc2[N+](=O)[O-])n1 | inactive: 4.91% |
| CC(C)(C)C(=O)NC(Sc1ccncn1)C(Cl)(Cl)Cl (centres undefined) | inactive: 1.06% |
| O=C(O)CNc1ccc([As](=O)(O)O)cc1 | inactive: 0.58% |
| O=[N+]([O-])c1cccc(NC2=NCC(CBr)S2)c1 (centres undefined) | inactive: 2.47% |
| COC(=O)C1(C)COP(=O)(Nc2ccccc2)OC1 (centres undefined) | inactive: 4.77% |
| O=P(Nc1ccccn1)(c1ccc(Br)cc1)c1ccc(Br)cc1 | inactive: 3.15% |
| CN(C)C1(CNC(=O)c2ccc(Cl)c(S(N)(=O)=O)c2)CCCCC1 | inactive: 3.77% |
| COc1ccc(N)c([N+](=O)[O-])c1[N+](=O)[O-] | inactive: 2.61% |
| C[C@H]1OP(=O)(Oc2ccccc2)[C@H](O)[C@H](O)[C@H]1N=[N+]=[N-] (some centres undefined) | inactive: 0.07% |
| O=P(Nc1nc2ccccc2s1)(c1ccccc1)c1ccccc1 | inactive: 4.47% |
| O=[As](O)(c1ccccc1)c1ccc(O)cc1 | inactive: 1.81% |
| O=[N+]([O-])c1ccc(O)c(/C=N/Nc2ccc([N+](=O)[O-])cc2[N+](=O)[O-])c1 | inactive: 6.76% |
| O=[N+]([O-])c1ncn(CCn2cnc([N+](=O)[O-])n2)n1 | inactive: 1.06% |
| CC(=O)NC(SC(=S)N(C)C)C(Cl)(Cl)Cl (centres undefined) | inactive: -1.28% |
| O=C(OC1CN2CCC1CC2)c1cccc(Cl)c1 (centres undefined) | inactive: 3.14% |
| Nc1ccc([As](=O)(O)c2ccc([N+](=O)[O-])cc2)cc1 | inactive: 3.49% |
| C(Cc1nn[nH]n1)Cc1nn[nH]n1 | inactive: 0.4% |
| CC(C)C(=O)NC(Sc1ccccc1)C(Cl)(Cl)Cl (centres undefined) | inactive: 5.66% |
| O=P(Nc1nccs1)(c1ccccc1)c1ccccc1 | inactive: 3.07% |
| c1nnnn1CCn1cnnn1 | inactive: -0.78% |
| CCOc1ccc(C2=NCC(CBr)S2)cc1 (centres undefined) | inactive: 9.04% |
| O=P1(Nc2nc3ccc(Cl)cc3s2)COc2ccccc2O1 (centres undefined) | inactive: 4.3% |

| SMILES | inhibition |
| --- | --- |
| CC(C)(C)C(=O)NC(Sc1ccccc1)C(Cl)(Cl)Cl (centres undefined) | inactive: -2.03% |
| CCc1cc(O)c([N+](=O)[O-])c(C)c1[N+](=O)[O-] | inactive: 4.6% |
| C[C@@H]1C=CCP(=O)(Oc2ccccc2)O1 (some centres undefined) | inactive: 8.07% |
| C[C@H]1OP(=O)(Oc2ccccc2)C[C@@H]2O[C@@H]21 (some centres undefined) | inactive: -0.94% |
| Cc1ccccc1CN(C)C(=O)COC(=O)C(O)(c1ccccc1)c1ccccc1 | inactive: 9.66% |
| COC(=O)C1(C)COP(=O)(NCc2ccccc2)OC1 (centres undefined) | inactive: -2.96% |
| N#C/C(=C\c1ccc(N(CCBr)CCBr)cc1)C(N)=O | inactive: 6.97% |
| CC(=O)c1ccc(N2CC2c2ccncc2)cc1 (centres undefined) | inactive: 10.9% |
| CC(=O)Nc1ccc(Oc2c([N+](=O)[O-])cc([N+](=O)[O-])cc2[N+](=O)[O-])cc1 | inactive: 0.28% |
| CC(=O)Nc1ccc([As](=O)(O)O)c(O)c1 | inactive: 2.9% |
| CCNC(=S)/N=C(\N)N[N+](=O)[O-] | inactive: 9.97% |
| O=C(NC1CCS(=O)(=O)C1)NP(=S)(Oc1ccccc1)Oc1ccccc1 (centres undefined) | inactive: 6.36% |
| O=P1(N(CCCl)CCCl)OCCC2CCCCN21 (centres undefined) | inactive: 1.27% |
| CCC(=O)N1C2C3N(C(=O)CC)C1C1N(C(=O)CC)C(C(N1C(=O)CC)N3C(=O)CC)N2C(=O)CC | inactive: 3.9% |
| O=C(OC1CN2CCC1CC2)c1ccccc1 (centres undefined) | inactive: 1.61% |
| Cc1ccc(OP(=O)(Nc2ccccn2)Oc2ccc(C)cc2)cc1 | inactive: 5.63% |
| CC(=O)NC(SC(=S)N(CC(C)C)CC(C)C)C(Cl)(Cl)Cl (centres undefined) | inactive: 2.78% |
| COC(=O)c1cc2c(s1)N=C(c1ccccc1)N(C)P2(=O)N1CCOCC1 (centres undefined) | inactive: 5.75% |
| CN(C)C(=O)Oc1noc2ccccc12 | inactive: 4.44% |
| O=c1c2cc([N+](=O)[O-])ccc2[nH]c2c([N+](=O)[O-])cc([N+](=O)[O-])cc12 | active: 36.9% |
| Cc1ccccc1OP(=O)(Nc1ccccn1)Oc1ccccc1C | inactive: 2.88% |
| CC(NC(=O)COC(=O)C(O)(c1ccccc1)c1ccccc1)c1ccccc1 (centres undefined) | inactive: 4.83% |

From PubChem BioAssay AID492972 (The Scripps Research Institute Molecular Screening Center, 2010)
